From patent US20250011445A1 (priority 2020, published 2025) come the findings set out here.

This test deals with NIH3T3 cells. Put plainly: Death ligand-induced cell death in NIH3T3 cells, Sytox green, Incucyte. Format: cell-based, mouse. The conditions noted are these: IFN pretreatment 24 hr; 1 μg/ml Death Ligand; in presence of zVAD-fmk.

B1: IFN-beta: type I IFN (protein, UniProt P01574 22-187, looked up)
Interferon beta: MSYNLLGFLQRSSNFQCQKLLWQLNGRLEYCLKDRMNFDIPEEIKQLQQFQKEDAALTIYEMLQNIFAIFRQDSSSTGWNETIVENLLANVYHQINHLKTVLEEKLEKEDFTRGKLMSSLHLKRYYGRILHYLKAKEYSHCAWTIVRVEILRNFYFINRLTGYLRN
B1: the “sensitisation to death induction by TRAIL or FasL” value was “significantly sensitised them to death induction by TRAIL or FasL”.
